Ab-14 light chain CDR variants: yeast mating affinities

From the AlphaSeq antibody data of Li et al. 2023 (doi:10.1038/s41467-023-39022-2), copy in the FLAb collection.

Antigen: PDVDLGDISGINAS, a 14-residue peptide of the SARS-CoV-2 spike HR2 region.

Parent: Ab-14, a human scFv built as VH, three GGGGS repeats, VL. Only the CDRs of the light chain vary.
VH: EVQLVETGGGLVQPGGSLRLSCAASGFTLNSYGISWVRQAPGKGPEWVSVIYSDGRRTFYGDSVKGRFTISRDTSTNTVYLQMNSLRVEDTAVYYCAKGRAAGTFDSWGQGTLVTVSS
VL: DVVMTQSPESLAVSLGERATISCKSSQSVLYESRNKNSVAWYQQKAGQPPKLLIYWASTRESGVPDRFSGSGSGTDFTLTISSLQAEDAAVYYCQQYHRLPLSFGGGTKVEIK

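The starting antibody came from a phage panning campaign against this peptide. This is the validation round: designs drawn from the data on random variants, tested in the same kind of assay. Group labels follow the data file (Ctrl: baseline library sampled from a position-specific scoring matrix, with some repeated check sequences; En: ensemble of fine-tuned language models; GP: Gaussian process model; HC: hill climbing; Gen: genetic algorithm; Gibbs: Gibbs sampling; a sequence that several methods proposed may carry one label only). The scFvs were displayed on barcoded MATa yeast, the peptide on MATalpha yeast. Binding brings cells together so that they mate, and sequencing counts the barcode pairs among the diploids. Scores were corrected for input abundance and mapped to Kd with protein pairs of known affinity run in the same pool. Mating was done six times.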

Each variant is given by its three light chain CDRs, as the data file delimits them; those of the parent are KSSQSVLYESRNKNSVA, WASTRES, QQYHRLPLS. This list holds designs with more than six substitutions. The read-out is the apparent dissociation constant on a log10 scale (nM): the lower, the stronger. The mean shown is taken over the replicates in which the pair was detected. "ND" marks a missing value. The strain was present, yet no cells mated with the target were sequenced in that replicate, which points to weak or no binding. Empty control strains, which show no peptide, gave a signal in 4% of pairings with all light chain designs; the median was 2.64 and 95% of these signals were weaker than 1.59. No background was subtracted.

MMSQVTGSGQRHRNNVA / QTSTREP / QQYDRLPLI [En_Gen]: 1.24, 0.65, 0.44, 0.80, 0.69, 0.87 (mean 0.78).
MFSQGIMVGWLTRNSVA / NSSTRES / QQYHRLPLS [En_HC]: 0.72, 0.68, 0.40, 0.36, 0.64, 0.63 (mean 0.57).
KLSESAHFESRKKNSVA / ENSTRES / QQYEHLPLS [En_HC]: ND, ND, ND, 2.93, ND, ND.
KLYEAGEESSKVDRSIA / EMSTRQE / QQYQRLPLS [En_Gibbs]: 1.50, 1.29, 1.26, 1.29, 1.44, 1.54 (mean 1.39).
KLSIFHQVEQINKSNVA / EMVTRES / QQYDRLPLS [En_HC]: ND, ND, 0.95, 1.50, 0.78, ND (mean 1.08).
QLLMATMQGQHNRNSVA / HAVTRND / QSYHRLPLS [En_HC]: 1.06, 1.57, 1.19, 1.26, 0.81, 1.41 (mean 1.22).
KLDMFIPSQWEWDASIA / GATLRNT / QDYARLPLS [En_Gibbs]: 1.65, 1.21, 1.14, 1.18, 0.89, 0.71 (mean 1.13).
KLDLSMSYSHEGRRAIA / NADAHVI / QQYHRLPLI [En_Gibbs]: 0.71, 0.47, 0.40, 0.34, 1.04, 0.90 (mean 0.64).
SLMQVGGYETNNKNSIA / DLRTRES / QQYHRLPLS [En_HC]: 0.75, 1.42, 0.63, 1.00, 1.22, 1.02 (mean 1.01).
MISQMFLGESRNRNSVA / QASTRES / QSYDRLPLS [En_HC]: 1.28, 1.96, 1.25, 1.44, 1.49, 1.53 (mean 1.49).
QTTAFYEHGYDQQQAMA / DVTMRDQ / QQYERLPLS [En_Gibbs]: 0.60, 0.81, 0.17, 0.39, 0.69, 1.53 (mean 0.70).
SLKYQQDGNGLQRQAIA / GVGLKEL / QQYGRLPLT [En_Gibbs]: 1.35, 1.21, 0.54, 0.74, 1.87, 0.67 (mean 1.06).
MFSQLTYTGSRARNAVA / QAETREN / QQYHHLPLI [En_HC]: 0.86, 1.80, 0.82, 0.32, 0.53, 0.87 (mean 0.87).
KFQQSQLYESRNMNSVA / NASQREQ / QQYHRLPLK [GP_Gibbs]: 0.40, 0.66, 0.25, 0.16, 0.14, 0.23 (mean 0.31).
KLREVQHVETKQKNNVA / DNDTRES / QDYYRLPLS [En_HC]: ND, ND, 3.14, ND, ND, ND.
KLSYSDGGLQRNKNSVA / EASTREM / QQYHRLPLS [GP_Gibbs]: 0.56, 0.47, 0.39, 0.33, 0.34, 0.48 (mean 0.43).
TLYGLSHSMSKNKNNVA / EMTTRED / QQYDRLPLV [En_Gen]: 0.56, 0.31, 0.30, 0.21, 0.60, 0.28 (mean 0.38).
SISGFMKSLSAHANSVA / DMTNREN / QQYNRLPLS [En_Gen]: 0.55, 0.60, 0.29, 0.47, 1.11, 0.74 (mean 0.63).
MITAVMNAYNGSFSSVA / DKTISVN / QQYHRLPLS [En_Gibbs]: 1.79, 1.87, 1.04, 0.95, 1.08, 1.53 (mean 1.38).
TIGQSTLMESRQKNNVA / QMSTREK / QQYDRLPLS [En_HC]: 0.10, -0.03, 0.14, 0.26, -0.01, -0.01 (mean 0.07).
KISQTFNVGTKNTNSLA / EMNTRGG / QDYHRLPLS [En_HC]: 0.36, 0.59, 0.63, 0.53, 0.77, 0.77 (mean 0.61).
HMSMLTMMGMRHRNSVA / QMTMREN / QQYDRLPLA [En_Gen]: 2.28, 3.30, 1.73, 1.30, 1.43, 2.25 (mean 2.05).
HLYTGNYTQKNRTNAIA / DARLRVQ / QQYSRLPIM [En_Gibbs]: ND, ND, ND, 1.46, ND, 2.70 (mean 2.08).
QLFFNDFQYDIESQNIA / QASLREV / QQYARLPLV [En_Gibbs]: 0.67, 0.61, 0.42, 1.06, 0.48, 0.90 (mean 0.69).
ALSFEMESPHNHSNNVA / SASKLCS / QQYFTLPLS [En_Gibbs]: ND, 2.76, ND, ND, ND, ND.
MMSSLMGYESRNIQNVA / QTSTREE / QQYDRLPLV [En_Gen]: 0.22, 0.39, 0.22, 0.21, 0.09, 0.37 (mean 0.25).
AISQMLEPAAQNSSSVA / EADRVTE / QQYHKLPLT [En_Gibbs]: 1.09, 1.77, 2.41, 2.14, 1.47, 1.48 (mean 1.73).
KVYSGINFESTAKNNIA / EEVMRTK / QQYARLPLS [En_Gen]: 0.53, 0.36, 0.30, 0.36, 0.42, 0.79 (mean 0.46).
KLSQVTHVESRNKNSIA / EMVTREY / QQYDRLPLS [En_HC]: 0.89, 0.56, 0.99, 0.52, 0.45, 0.53 (mean 0.66).
MVSQLMLWGHLAKNSIA / EAEHRCN / QQYDRLPLF [En_Gen]: 2.39, ND, 1.11, ND, 1.17, 0.98 (mean 1.41).
MIHESYGLMSVKQSSIA / DNSTRED / QQYDRLPLS [En_Gen]: 1.63, 2.19, ND, 2.95, 1.99, ND (mean 2.19).
MISPSVMYGYRNLNSVA / QTQTRES / QQYNRLPLS [En_HC]: 0.09, -0.11, 0.02, -0.33, 0.02, 0.22 (mean -0.02).
HVKEDLNMGMKFQSSVA / SGAHREH / QQYYRLPLG [En_Gibbs]: 0.62, 0.48, 0.58, 0.39, 0.69, 1.05 (mean 0.64).
HMSMITLGGMRARNSVA / QMTTREN / QQYDRLPLA [En_Gen]: 0.76, 0.92, 0.68, 0.75, 0.98, 1.06 (mean 0.86).
KISQSILFMSGQKNAIA / QMEMREE / QQYHRLPLS [En_HC]: 1.48, 0.92, 0.94, 1.97, 1.08, 0.80 (mean 1.20).
KSWNSCEDEFRNSNSVA / WASTRES / QQYGRLPLS [Ctrl]: ND, ND, ND, ND, ND, ND.
KLRQVTGYESYLKNSVA / QTSTRAS / QDYNRLPLS [En_HC]: 1.61, 1.72, 2.36, 0.79, 2.11, 1.77 (mean 1.73).
KLQWYNTYATYSAQNIA / DGAQRLN / QQYMRLPLM [En_Gibbs]: 0.47, -0.17, -0.25, -0.19, 0.01, -0.17 (mean -0.05).
KFDMHIPYQGEQKAHIA / GTTNRLT / QQYFKLPLS [En_Gibbs]: 0.85, 0.57, 0.65, 0.41, 0.67, 0.72 (mean 0.64).
MISQLYNMGQFAINSVA / QASIRND / QQYDRLPLI [En_Gen]: 1.84, 1.84, 1.76, 1.12, 1.33, 1.51 (mean 1.57).
AEDHQEGSGKNSDANVA / QAEQRAP / QQYHHLPLM [En_Gibbs]: 1.07, 1.48, ND, 0.58, ND, 1.13 (mean 1.07).
HITYGMQVAGRHSKSIA / QAETRAK / QQYDRLPLT [En_Gen]: ND, ND, ND, 3.34, ND, ND.
KLSQGWLYESRNANNVA / NASRREQ / QQYHRLPLS [GP_Gibbs]: -0.30, -0.34, -0.51, -0.43, -0.47, -0.32 (mean -0.40).
HISMMVGTKGYNKNSVA / NAQTRED / QQYHRLPLS [En_HC]: 1.17, 0.70, 1.22, 1.22, 0.81, 0.82 (mean 0.99).
KLPQSVLYEQRNSNSVA / NGSTRFS / QQYHRLPLS [GP_Gibbs]: -0.12, -0.03, -0.16, -0.19, -0.01, -0.17 (mean -0.11).
HVAGMMLQMGTQHQNIA / DMAIKCD / QQYQRLPLH [En_Gibbs]: 0.86, 0.98, 0.93, 0.90, 0.61, 0.41 (mean 0.78).

Repeated from above, the 3 best binders with a signal in all replicates:

CDR-L1	CDR-L2	CDR-L3	group	log10 Kd (nM) by replicate	log10 Kd (nM), mean
KLSQGWLYESRNANNVA	NASRREQ	QQYHRLPLS	GP_Gibbs	-0.30, -0.34, -0.51, -0.43, -0.47, -0.32	-0.40
KLPQSVLYEQRNSNSVA	NGSTRFS	QQYHRLPLS	GP_Gibbs	-0.12, -0.03, -0.16, -0.19, -0.01, -0.17	-0.11
KLQWYNTYATYSAQNIA	DGAQRLN	QQYMRLPLM	En_Gibbs	0.47, -0.17, -0.25, -0.19, 0.01, -0.17	-0.05

Of ten entries with the parent sequence, four were seen in most replicates (averages 0.34 to 2.37), three in one and three in none, so single entries are noisy. The authors' rule: three or more of the six replicates give a measured affinity, fewer mean a poor binder. A sequence measured in both rounds can read differently, since the two assays cover different ranges.